Source: patent US20050170394A1 (priority 2004, published 2005)

Amino acid sequences for entries named in this document (tags omitted).
UniProt P08183, whole entry: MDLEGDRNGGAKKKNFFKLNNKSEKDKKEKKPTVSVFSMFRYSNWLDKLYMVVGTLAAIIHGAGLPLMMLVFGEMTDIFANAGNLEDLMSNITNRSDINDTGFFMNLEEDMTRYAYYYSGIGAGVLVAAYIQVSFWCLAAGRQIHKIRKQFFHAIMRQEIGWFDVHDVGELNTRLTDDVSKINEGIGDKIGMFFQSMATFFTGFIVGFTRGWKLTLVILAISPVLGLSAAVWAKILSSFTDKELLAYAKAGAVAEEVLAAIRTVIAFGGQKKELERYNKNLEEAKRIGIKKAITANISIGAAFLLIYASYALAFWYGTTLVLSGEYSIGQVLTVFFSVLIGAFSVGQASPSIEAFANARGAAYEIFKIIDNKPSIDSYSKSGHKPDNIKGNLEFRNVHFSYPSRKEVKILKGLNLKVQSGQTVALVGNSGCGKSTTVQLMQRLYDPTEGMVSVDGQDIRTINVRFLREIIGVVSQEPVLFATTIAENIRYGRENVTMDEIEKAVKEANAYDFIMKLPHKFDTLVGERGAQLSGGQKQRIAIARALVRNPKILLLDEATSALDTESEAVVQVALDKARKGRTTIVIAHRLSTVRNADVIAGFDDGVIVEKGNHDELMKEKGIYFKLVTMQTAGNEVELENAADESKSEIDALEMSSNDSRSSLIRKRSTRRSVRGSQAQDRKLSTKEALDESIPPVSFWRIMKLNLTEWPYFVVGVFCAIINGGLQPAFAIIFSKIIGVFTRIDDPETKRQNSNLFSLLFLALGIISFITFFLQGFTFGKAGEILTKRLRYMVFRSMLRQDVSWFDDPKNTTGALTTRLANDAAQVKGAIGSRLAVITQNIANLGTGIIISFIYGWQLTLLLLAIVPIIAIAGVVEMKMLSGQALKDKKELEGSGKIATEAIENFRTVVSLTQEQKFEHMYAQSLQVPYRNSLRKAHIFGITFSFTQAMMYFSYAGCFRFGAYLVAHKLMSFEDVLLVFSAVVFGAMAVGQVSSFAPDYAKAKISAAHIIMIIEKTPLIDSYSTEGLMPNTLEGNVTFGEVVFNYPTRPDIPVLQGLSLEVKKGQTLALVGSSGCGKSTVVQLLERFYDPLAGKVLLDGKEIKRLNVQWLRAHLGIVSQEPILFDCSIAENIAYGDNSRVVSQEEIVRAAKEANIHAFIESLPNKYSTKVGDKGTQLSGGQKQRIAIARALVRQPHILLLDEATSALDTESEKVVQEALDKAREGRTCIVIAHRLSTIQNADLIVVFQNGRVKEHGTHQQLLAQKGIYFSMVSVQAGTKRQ

Biological target: PgP (Homo sapiens, UniProt P08183)
Experiment: Cellular transwell monolayer efflux assay in MDCK cells transfected with TREx-PgP
[1] = 2.5 nM 3H-vinblastine, 250 μM verapamil

In the case of ^3H-vinblastine, the “Apical to basolateral transport in the presence of verapamil” value [1] was “strongly increased”, the “Basolateral to apical transport in the presence of verapamil” value [1] was “strongly decreased” and the PgP substrate status (with and without 250 μM verapamil) was “substrate of PgP”.
